Values of other authors as cited in PMC8466755, “GPCR Pharmacological Profiling of Aaptamine from the Philippine Sponge Stylissa sp. Extends Its Therapeutic Potential for Noncommunicable Diseases” (Molecules, 2021).

Chains of the proteins cited; added tags and fusions are not shown.
UniProt P25106, whole entry: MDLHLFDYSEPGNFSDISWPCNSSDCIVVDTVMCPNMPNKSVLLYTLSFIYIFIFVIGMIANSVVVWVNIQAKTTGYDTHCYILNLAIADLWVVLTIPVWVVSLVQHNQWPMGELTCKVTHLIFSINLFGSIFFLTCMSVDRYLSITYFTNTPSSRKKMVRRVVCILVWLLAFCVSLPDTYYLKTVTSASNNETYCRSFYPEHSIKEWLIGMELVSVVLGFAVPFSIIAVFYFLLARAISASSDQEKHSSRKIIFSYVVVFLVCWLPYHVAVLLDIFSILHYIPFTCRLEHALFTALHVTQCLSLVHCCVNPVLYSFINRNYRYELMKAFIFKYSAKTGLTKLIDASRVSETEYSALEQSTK

Biological target: CXCR7 (Homo sapiens, UniProt P25106)
Details: read-out: EC50 against CXCR7; cited from earlier work

## N=C(N)NCCC[C@H](NC(=O)[C@@H]1CSSC[C@H](NC(=O)[C@H](Cc2ccc3ccccc3c2)NC(=O)[C@H](CCCNC(=N)N)NC(=O)[C@@H](N)CCCNC(=N)N)C(=O)N[C@@H](Cc2ccc(O)cc2)C(=O)N[C@@H](CCCNC(N)=O)C(=O)N[C@@H](CCCCN)C(=O)N[C@H](CCCNC(N)=O)C(=O)N2CCC[C@H]2C(=O)N[C@@H](Cc2ccc(O)cc2)C(=O)N[C@@H](CCCNC(=N)N)C(=O)N[C@@H](CCCNC(N)=O)C(=O)N1)C(N)=O
  EC50: 3.5 nM
